Results from PubChem BioAssay AID651560 (Sanford-Burnham Center for Chemical Genomics, 2012).
The list shows a part of the results, in another mix than the full data. Active and inactive are the calls of the source.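 How the source made its calls: active means compounds that cut the enzyme signal by at least half of the control window in the single-dose screen; inactive means the rest.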

Sequences of proteins named here, by UniProt entry; tags and fusion partners are left off.
UniProt P24666, whole entry: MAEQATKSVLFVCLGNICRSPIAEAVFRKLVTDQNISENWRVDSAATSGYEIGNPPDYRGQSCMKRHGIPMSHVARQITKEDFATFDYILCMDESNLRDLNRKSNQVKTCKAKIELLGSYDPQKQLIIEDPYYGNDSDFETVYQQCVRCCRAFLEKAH

molecular target: Low molecular weight phosphotyrosine protein phosphatase (Homo sapiens) (UniProt P24666); experiment: LMPTP phosphatase inhibitors, primary screen, biochemical, fluorescence intensity, uHTS (AID 651560); conditions: recombinant LMPTP-A, OMFP fluorogenic substrate, at 20 µM, stronger effect = higher value;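 further: plate controls were DMSO wells with enzyme plus substrate for no effect and substrate without enzyme for full effect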
Method in brief: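 Test system: LMPTP-A phosphatase enzyme; input: 0.625 nM LMPTP-A final; reagent: OMFP substrate, 400 µM final; compound dosing: 20 µM single dose, 3% DMSO; incubation: 50 min dark incubation at room temperature; measured by: endpoint fluorescence intensity from OMFP dephosphorylation; measure: % inhibition relative to no-enzyme and uninhibited control wells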

Structure (SMILES)	inhibition
CCN1CCC(Nc2ccc(Cl)cc2)CC1	inactive: -3.02%
Cc1cc(N(CCCl)CCCl)ccc1C=O	inactive: -1.55%
CCCN1CCC(Nc2cc(OC)cc(OC)c2)CC1	inactive: -1.35%
O=c1[nH]c2ccccc2n1C1CCN(C(c2ccccc2)c2nnnn2C2CCCC2)CC1 (stereo not drawn)	inactive: 3.71%
c1ccc(CN2CCC(Nc3ccccc3)CC2)cc1	inactive: -0.0684%
CN(C)C1(CNC(=O)c2cccc(C#N)c2)CCCCC1	inactive: -1.84%
CC(C)(C)n1nnnc1C(c1cccc2ccccc12)N1CCC(n2c(=O)[nH]c3ccccc32)CC1 (stereo not drawn)	inactive: 6.57%
CC(C)(C)OC(=O)N1CCC(N(C(=O)c2ccccc2)c2ccc(Cl)cc2)CC1	inactive: 1.72%
N#Cc1ccc(C(=O)NCC2(N3CCCCC3)CCCCC2)cc1	inactive: -2.07%
N/C(=N\O)c1c(N)no[n+]1[O-]	inactive: -2.78%
COc1cccc(C(c2nnnn2C(C)(C)C)N2CCC(n3c(=O)[nH]c4ccccc43)CC2)c1OC (stereo not drawn)	inactive: 6.31%
CCOC(=O)N1CCC(Nc2ccc(C)cc2)CC1	inactive: -3.22%
CCCCn1nnnc1C(c1cccc(OC)c1OC)N1CCC(n2c(=O)[nH]c3ccccc32)CC1 (stereo not drawn)	inactive: 5.21%
O=c1[nH]c2ccccc2n1C1CCN(C(c2cccs2)c2nnnn2C2CCCC2)CC1 (stereo not drawn)	inactive: 3.79%
O=C(OC1CN2CCC1CC2)C1c2ccccc2C=Cc2ccccc21 (stereo not drawn)	inactive: 0.122%
O=C(NCC1(N2CCOCC2)CCCCC1)c1cc(Br)ccc1Cl	inactive: 0.161%
COc1cc(C(=O)NCC2(N3CCOCC3)CCCCC2)cc(OC)c1C	inactive: -0.733%
CCCCn1nnnc1C(c1ccccc1)N1CCC(n2c(=O)[nH]c3ccccc32)CC1 (stereo not drawn)	inactive: 2.42%
O=c1[nH]c2ccccc2n1C1CCN(C(c2ccnc3ccccc23)c2nnnn2C2CCCC2)CC1 (stereo not drawn)	inactive: 7.36%
COc1ccc(C(=O)NCC2(N3CCOCC3)CCCCC2)cc1OC	inactive: -0.564%
O=c1[nH]c2ccccc2n1C1CCN(C(c2cccs2)c2nnnn2C2CCCCC2)CC1 (stereo not drawn)	inactive: 3.79%
CCC(CO)(C(=O)OC1CN2CCC1CC2)c1ccccc1 (stereo not drawn)	inactive: -0.335%
COc1cccc(C(=O)N(c2cc(C)cc(C)c2)C2CCN(C(=O)OC(C)(C)C)CC2)c1	inactive: 1.86%
COc1cccc(C(c2nnnn2C2CCCC2)N2CCC(n3c(=O)[nH]c4ccccc43)CC2)c1OC (stereo not drawn)	inactive: 5.15%

Structure (SMILES)	inhibition
COc1cc(OC)cc(C(=O)NCC2(N3CCOCC3)CCCCC2)c1	inactive: -0.307%
CN1CCC(Nc2ccc(Cl)cc2)CC1	inactive: -5.21%
CN1CCC(Nc2ccc(F)c(Cl)c2)CC1	inactive: -3.84%
CCOc1ncccc1C(=O)NCC1(N2CCOCC2)CCCCC1	inactive: -1.22%
CCCOc1ccc(C(=O)NCC2(N(C)C)CCCCC2)cc1	inactive: 0.685%
O=c1[nH]c2ccccc2n1C1CCN(C(c2cc3ccccc3o2)c2nnnn2C2CCCC2)CC1 (stereo not drawn)	inactive: 4.64%
NN(c1ccccc1)C1CCN(CCc2ccccc2)CC1	inactive: -0.556%
O=C(O)C1(Nc2ccccc2)CCN(Cc2ccccc2)CC1	inactive: -0.343%
CC(C)(C)OC(=O)N1CCC(Nc2ccccc2)CC1	inactive: -0.532%
CC(C)(C)n1nnnc1C(c1ccnc2ccccc12)N1CCC(n2c(=O)[nH]c3ccccc32)CC1 (stereo not drawn)	inactive: 8.87%
CCN1CCC(Nc2cccc(F)c2)CC1	inactive: -2.32%
COc1ccc(C(c2nnnn2C2CCCCC2)N2CCC(n3c(=O)[nH]c4ccccc43)CC2)cc1 (stereo not drawn)	inactive: 4.97%
Cc1ccccc1NC1(C#N)CCN(Cc2ccccc2)CC1	inactive: -1.54%
Cn1c(=O)[nH]cc(N(CCCl)CCCl)c1=O	inactive: -1.11%
CN(C)c1ccc(C(=O)NCC2(N3CCCCC3)CCCCC2)cc1	inactive: 0.258%
O=C(NCC1(N2CCCCC2)CCCCC1)c1ccco1	inactive: -1.68%
O=c1[nH]c2ccccc2n1C1CCN(C(c2ccnc3ccccc23)c2nnnn2C2CCCCC2)CC1 (stereo not drawn)	inactive: 8.47%
COc1cc(OC)cc(C(=O)NCC2(N3CCCCC3)CCCCC2)c1	inactive: -0.396%
CCC(c1nnnn1C1CCCCC1)N1CCC(n2c(=O)[nH]c3ccccc32)CC1 (stereo not drawn)	inactive: 3.34%
CC(=O)N(c1ccccc1)C1CCNCC1	inactive: -0.791%
COc1cccc(C(c2nnnn2C2CCCCC2)N2CCC(n3c(=O)[nH]c4ccccc43)CC2)c1OC (stereo not drawn)	inactive: 5.77%
Cc1ccc(NC2(C#N)CCN(Cc3ccccc3)CC2)cc1	inactive: -0.418%
Fc1ccccc1NC1CCN(Cc2ccccc2)CC1	inactive: -0.942%
Cc1ccc(C(=O)NCC2(N3CCCCC3)CCCCC2)o1	inactive: 0.502%
